# Literature values in US20240076624A1 (published 2024).
# Target: T1, ALK5 (TGF-βR1) (Homo sapiens, UniProt P36897)
# T1 sequence (P36897 34-503): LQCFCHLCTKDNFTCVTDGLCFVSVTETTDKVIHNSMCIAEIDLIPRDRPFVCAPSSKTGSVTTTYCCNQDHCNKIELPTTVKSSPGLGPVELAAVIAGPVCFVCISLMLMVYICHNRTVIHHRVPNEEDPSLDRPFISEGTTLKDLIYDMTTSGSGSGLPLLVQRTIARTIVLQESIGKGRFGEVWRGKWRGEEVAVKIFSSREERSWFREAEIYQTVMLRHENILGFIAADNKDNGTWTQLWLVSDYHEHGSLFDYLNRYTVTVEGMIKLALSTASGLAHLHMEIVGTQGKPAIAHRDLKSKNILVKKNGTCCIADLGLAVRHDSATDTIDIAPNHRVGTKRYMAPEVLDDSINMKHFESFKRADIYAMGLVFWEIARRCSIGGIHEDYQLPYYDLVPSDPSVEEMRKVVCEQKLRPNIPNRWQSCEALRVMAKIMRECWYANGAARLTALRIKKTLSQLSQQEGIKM
# Conditions: high concentrations; p38 MAP kinase inhibitor; cited from earlier work
compound,measurement,value
C[S+]([O-])c1ccc(-c2nc(-c3ccc(F)cc3)c(-c3ccncc3)[nH]2)cc1 (stereo not shown) [SB-203580],concentration at which it is thought to inhibit ALK5,≥ 10 µM
